# Experimental data reported in patent US6858018B1.
# Test: in vitro iontophoretic delivery through excised porcine skin in flow-through cells
# Settings: 500 uA
substance,measurement,setting,value
remifentanil hydrochloride,Flux,"Exp #1, 10 mg/ml in water, 1 mg, 0.00 hrs",0.00 μg/min/cm^2
same,Flux,"Exp #1, 10 mg/ml in water, 1 mg, 1.00 hrs",0.00 μg/min/cm^2
same,Flux,"Exp #1, 10 mg/ml in water, 1 mg, 2.00 hrs",0.00 μg/min/cm^2
same,Flux,"Exp #1, 10 mg/ml in water, 1 mg, 3.00 hrs",0.02 μg/min/cm^2
same,Flux,"Exp #1, 10 mg/ml in water, 1 mg, 4.00 hrs",0.03 μg/min/cm^2
same,Flux,"Exp #1, 10 mg/ml in water, 1 mg, 5.00 hrs",0.05 μg/min/cm^2
same,Flux,"Exp #1, 10 mg/ml in water, 1 mg, 6.00 hrs",0.07 μg/min/cm^2
same,Flux,"Exp #1, 10 mg/ml in water, 1 mg, 7.00 hrs",0.09 μg/min/cm^2
same,Flux,"Exp #1, 10 mg/ml in water, 1 mg, 8.00 hrs",0.11 μg/min/cm^2
same,Flux,"Exp #1, 10 mg/ml in water, 1 mg, 9.00 hrs",0.12 μg/min/cm^2
same,Flux,"Exp #1, 10 mg/ml in water, 1 mg, 10.00 hrs",0.15 μg/min/cm^2
same,Flux,"Exp #1, 10 mg/ml in water, 1 mg, 11.00 hrs",0.16 μg/min/cm^2
same,Flux,"Exp #1, 10 mg/ml in water, 1 mg, 12.00 hrs",0.18 μg/min/cm^2
same,Flux,"Exp #1, 10 mg/ml in water, 1 mg, 13.00 hrs",0.20 μg/min/cm^2
same,Flux,"Exp #1, 10 mg/ml in water, 1 mg, 14.00 hrs",0.22 μg/min/cm^2
same,Flux,"Exp #1, 10 mg/ml in water, 1 mg, 15.00 hrs",0.23 μg/min/cm^2
same,Flux,"Exp #1, 10 mg/ml in water, 1 mg, 16.00 hrs",0.24 μg/min/cm^2
same,Flux,"Exp #1, 10 mg/ml in water, 1 mg, 17.00 hrs",0.25 μg/min/cm^2
same,Flux,"Exp #1, 10 mg/ml in water, 1 mg, 18.00 hrs",0.26 μg/min/cm^2
same,Flux,"Exp #1, 10 mg/ml in water, 1 mg, 19.00 hrs",0.26 μg/min/cm^2
same,Flux,"Exp #1, 10 mg/ml in water, 1 mg, 20.00 hrs",0.26 μg/min/cm^2
same,Flux,"Exp #1, 10 mg/ml in water, 1 mg, 21.00 hrs",0.24 μg/min/cm^2
same,Flux,"Exp #1, 10 mg/ml in water, 1 mg, 22.00 hrs",0.23 μg/min/cm^2
same,Flux,"Exp #1, 10 mg/ml in water, 1 mg, 23.00 hrs",0.22 μg/min/cm^2
same,Flux,"Exp #1, 10 mg/ml in water, 1 mg, 24.00 hrs",0.20 μg/min/cm^2
same,Flux,"Exp #1, 10 mg/ml in water, 1 mg, −1.00 hrs",0.00 μg/min/cm^2
same,Flux,"Exp #2, 20 mg/ml in water, 2 mg, 0.00 hrs",0.00 μg/min/cm^2
same,Flux,"Exp #2, 20 mg/ml in water, 2 mg, 1.00 hrs",0.00 μg/min/cm^2
same,Flux,"Exp #2, 20 mg/ml in water, 2 mg, 2.00 hrs",0.02 μg/min/cm^2
same,Flux,"Exp #2, 20 mg/ml in water, 2 mg, 3.00 hrs",0.03 μg/min/cm^2
same,Flux,"Exp #2, 20 mg/ml in water, 2 mg, 4.00 hrs",0.05 μg/min/cm^2
same,Flux,"Exp #2, 20 mg/ml in water, 2 mg, 5.00 hrs",0.05 μg/min/cm^2
same,Flux,"Exp #2, 20 mg/ml in water, 2 mg, 6.00 hrs",0.06 μg/min/cm^2
same,Flux,"Exp #2, 20 mg/ml in water, 2 mg, 7.00 hrs",0.06 μg/min/cm^2
same,Flux,"Exp #2, 20 mg/ml in water, 2 mg, 8.00 hrs",0.06 μg/min/cm^2
same,Flux,"Exp #2, 20 mg/ml in water, 2 mg, 9.00 hrs",0.07 μg/min/cm^2
same,Flux,"Exp #2, 20 mg/ml in water, 2 mg, 10.00 hrs",0.07 μg/min/cm^2
same,Flux,"Exp #2, 20 mg/ml in water, 2 mg, 11.00 hrs",0.08 μg/min/cm^2
same,Flux,"Exp #2, 20 mg/ml in water, 2 mg, 12.00 hrs",0.09 μg/min/cm^2
same,Flux,"Exp #2, 20 mg/ml in water, 2 mg, 13.00 hrs",0.10 μg/min/cm^2
same,Flux,"Exp #2, 20 mg/ml in water, 2 mg, 14.00 hrs",0.11 μg/min/cm^2
same,Flux,"Exp #2, 20 mg/ml in water, 2 mg, 15.00 hrs",0.12 μg/min/cm^2
same,Flux,"Exp #2, 20 mg/ml in water, 2 mg, 16.00 hrs",0.14 μg/min/cm^2
same,Flux,"Exp #2, 20 mg/ml in water, 2 mg, 17.00 hrs",0.15 μg/min/cm^2
same,Flux,"Exp #2, 20 mg/ml in water, 2 mg, 18.00 hrs",0.17 μg/min/cm^2
same,Flux,"Exp #2, 20 mg/ml in water, 2 mg, 19.00 hrs",0.19 μg/min/cm^2
same,Flux,"Exp #2, 20 mg/ml in water, 2 mg, 20.00 hrs",0.21 μg/min/cm^2
same,Flux,"Exp #2, 20 mg/ml in water, 2 mg, 21.00 hrs",0.23 μg/min/cm^2
same,Flux,"Exp #2, 20 mg/ml in water, 2 mg, 22.00 hrs",0.26 μg/min/cm^2
same,Flux,"Exp #2, 20 mg/ml in water, 2 mg, 23.00 hrs",0.27 μg/min/cm^2
same,Flux,"Exp #2, 20 mg/ml in water, 2 mg, 24.00 hrs",0.29 μg/min/cm^2
same,Flux,"Exp #2, 20 mg/ml in water, 2 mg, −1.00 hrs",0.00 μg/min/cm^2
same,Flux,"Exp #3, 10 mg/ml in water, 3 mg, 0.00 hrs",0.00 μg/min/cm^2
same,Flux,"Exp #3, 10 mg/ml in water, 3 mg, 1.00 hrs",0.00 μg/min/cm^2
same,Flux,"Exp #3, 10 mg/ml in water, 3 mg, 2.00 hrs",0.01 μg/min/cm^2
same,Flux,"Exp #3, 10 mg/ml in water, 3 mg, 3.00 hrs",0.03 μg/min/cm^2
same,Flux,"Exp #3, 10 mg/ml in water, 3 mg, 4.00 hrs",0.04 μg/min/cm^2
same,Flux,"Exp #3, 10 mg/ml in water, 3 mg, 5.00 hrs",0.04 μg/min/cm^2
same,Flux,"Exp #3, 10 mg/ml in water, 3 mg, 6.00 hrs",0.04 μg/min/cm^2
same,Flux,"Exp #3, 10 mg/ml in water, 3 mg, 7.00 hrs",0.04 μg/min/cm^2
same,Flux,"Exp #3, 10 mg/ml in water, 3 mg, 8.00 hrs",0.03 μg/min/cm^2
same,Flux,"Exp #3, 10 mg/ml in water, 3 mg, 9.00 hrs",0.03 μg/min/cm^2
same,Flux,"Exp #3, 10 mg/ml in water, 3 mg, 10.00 hrs",0.033 μg/min/cm^2
same,Flux,"Exp #3, 10 mg/ml in water, 3 mg, 11.00 hrs",0.035 μg/min/cm^2
same,Flux,"Exp #3, 10 mg/ml in water, 3 mg, 12.00 hrs",0.037 μg/min/cm^2
same,Flux,"Exp #3, 10 mg/ml in water, 3 mg, 13.00 hrs",0.039 μg/min/cm^2
same,Flux,"Exp #3, 10 mg/ml in water, 3 mg, 14.00 hrs",0.04 μg/min/cm^2
same,Flux,"Exp #3, 10 mg/ml in water, 3 mg, 15.00 hrs",0.047 μg/min/cm^2
same,Flux,"Exp #3, 10 mg/ml in water, 3 mg, 16.00 hrs",0.05 μg/min/cm^2
same,Flux,"Exp #3, 10 mg/ml in water, 3 mg, 17.00 hrs",0.058 μg/min/cm^2
same,Flux,"Exp #3, 10 mg/ml in water, 3 mg, 18.00 hrs",0.06 μg/min/cm^2
same,Flux,"Exp #3, 10 mg/ml in water, 3 mg, 19.00 hrs",0.072 μg/min/cm^2
same,Flux,"Exp #3, 10 mg/ml in water, 3 mg, 20.00 hrs",0.08 μg/min/cm^2
same,Flux,"Exp #3, 10 mg/ml in water, 3 mg, 21.00 hrs",0.098 μg/min/cm^2
same,Flux,"Exp #3, 10 mg/ml in water, 3 mg, 22.00 hrs",0.12 μg/min/cm^2
same,Flux,"Exp #3, 10 mg/ml in water, 3 mg, 23.00 hrs",0.124 μg/min/cm^2

# Only a part of the results on these compounds is given; other tests are left out.
